The numbers were not newly measured in patent US7776572B2, “Method for reducing loss of enzyme activity during storage” (Corning Incorporated, priority 1996, dated 2010), which cites them from elsewhere.

For this data set, the system named is rat. Particulars: cited from earlier work.

SORBITOL MONO-STEARATE: the LD50 is more than 15 grams/Kg.
Regarding PEO(4) SORBITOL MONO-LAURATE, the LD50 was more than 38 grams/Kg.
As for PEO(20) SORBITOL TRI-STEARATE, the LD50 is reported as more than 39 grams/Kg.
On to SORBITOL TRI-STEARATE, for which the LD50 is more than 15 grams/Kg.
